Antibody variant affinities, Ab-91 heavy chain, assay 2

The target is the same throughout: PDVDLGDISGINAS, from the HR2 region of SARS-CoV-2 spike.

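The starting antibody came from a phage panning campaign against this peptide. Variants in AAYL51 differ from the parent at up to three CDR positions; double and triple changes were sampled at random. AlphaSeq pools MATa yeast showing the antibodies with MATalpha yeast showing the peptide. After mating in shaken culture at 30 °C for 16 h, diploids were selected and their barcode pairs sequenced. A regression on co-assayed BCL2-family reference pairs converts the normalised counts of each replicate to an apparent Kd. The assay was run in three technical replicates.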

Each scFv is VL, a (GGGGS)3 linker, VH, as in the parent Ab-91, and differs from it in the CDRs of the heavy chain only.
VL: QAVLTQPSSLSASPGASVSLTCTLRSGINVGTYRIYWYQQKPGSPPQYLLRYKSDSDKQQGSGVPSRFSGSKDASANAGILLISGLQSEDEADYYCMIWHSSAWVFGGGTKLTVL
VH: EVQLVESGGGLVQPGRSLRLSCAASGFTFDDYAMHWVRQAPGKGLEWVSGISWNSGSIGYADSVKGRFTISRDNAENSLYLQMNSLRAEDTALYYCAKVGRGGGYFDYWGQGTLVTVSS

Each variant is given by its three heavy chain CDRs, as the data file delimits them; those of the parent are GFTFDDYAMH, GISWNSGSIGYADSVK, VGRGGGYFDY.
Values are apparent Kd, the geometric mean of the replicates that gave a signal; lower means stronger binding.
"nd" means that the variant was in the library but no mating with the target was seen in any replicate; the authors take this as a sign of poor binding, and no number exists.
Parent in this assay: reference entry 72 nM, copy in this library 7.5 nM.
Background: pairings of library AAYL51 with three empty control strains gave a value in 21% of cases (median 34 µM, 5th percentile 1.8 µM). Values in that range, when seen in few replicates, are hard to tell from nonspecific mating.

With HFTFDDYAMH / GISWNSGRIGYADSVK / VGIGGGYFDY the result was 110 µM (3 of 3 replicates).
With GFTFDDYAMH / GISWNSGSIWYADSVD / VGRGGGYLDY the result was nd (0 of 3 replicates).
With VFTFDDYAMH / GISWNSGSHGYADSKK / VGRGGGYFDY the result was 100 µM (3 of 3 replicates).
With GFTFDDYAMH / GIGWPSGSIGYADSVK / VGRGGGYFCY the result was nd (0 of 3 replicates).
With GFTFPAYAMH / GISWNSGSIGYADSVK / VGRGGGYFDF the result was 1.1 nM (3 of 3 replicates).
With GFTFDDYAMH / GIPWNSGSIGYQDSVK / VGRGGGAFDY the result was nd (0 of 3 replicates).
With GFNFDDTAMH / GISWMSGSIGYADSVK / VGRGGGYFDY the result was 13 µM (3 of 3 replicates).
With GFQFDDYAMH / GISWGSGSIGYADSVK / VGRGGLYFDY the result was nd (0 of 3 replicates).
With GFTFDDYAMH / GISTNSGSINYADFVK / VGRGGGYFDY the result was 170 µM (2 of 3 replicates).
With GFTFDDYAMH / GISWNSGSIGYADSVS / VKRGRGYFDY the result was 150 nM (3 of 3 replicates).
With GSTFDDYAMH / GISWNSGSIMYADSVK / VGLGGGYFDY the result was 58 µM (3 of 3 replicates).
With GFTFDDIAMH / GISWNSGSIGYADSVK / VGRGGSYFDY the result was 140 µM (3 of 3 replicates).
With GFTFDDYAMH / GISPNSGSIGYPDSRK / VGRGGGYFDY the result was 3.5 µM (1 of 3 replicates).
With GHTMDDYAMH / GISWNSGSIGYADSEK / VGRGGGYFDY the result was 4.7 µM (1 of 3 replicates).
With GFTFDDYAYH / GISWNSGSIGYADSVK / VGRCGGYFDE the result was 46 µM (2 of 3 replicates).
With GFTFDDYAMY / GISWNSGSIGCADSAK / VGRGGGYFDY the result was nd (0 of 3 replicates).
With GFTFDDYAMH / GNSWNSGSIGYADSVK / VGRGKWYFDY the result was 100 µM (1 of 3 replicates).
With GFTFDDYAMH / GISGNSGSIGYADSVK / VGRTGGIFDY the result was nd (0 of 3 replicates).
With GFTNDDYAMH / GISWNRGSIGYADSYK / VGRGGGYFDY the result was nd (0 of 3 replicates).
With GFTFDTYAMN / GISWNSGSIGYTDSVK / VGRGGGYFDY the result was 9.8 µM (1 of 3 replicates).
With GFTFDDYAMH / GIGWNSGSLGYADSVK / VGRGGGYFDY the result was nd (0 of 3 replicates).
With GFTFDDYAMH / GIRWASGSIGYADSVK / VGRGGWYFDY the result was 16 µM (1 of 3 replicates).
With GFTFDAYAMH / GISWNSGCIGYADGVK / VGRGGGYFDY the result was 85 µM (2 of 3 replicates).
With GFTFNDYAMH / GISWNSGSIGYADSVK / VGRGLVYFDY the result was nd (0 of 3 replicates).
With GFTFDDYAVH / GIYWNVGSIGYADSVK / VGRGGGYFDY the result was nd (0 of 3 replicates).
With GFTFDDYAMG / GISWNSGGIGYADSVK / VGRGGGYFDY the result was 39 µM (3 of 3 replicates).
With GFTFDDYAMH / GISNNSGSIKYADSVK / VGRGGTYFDY the result was 630 nM (1 of 3 replicates).
With GFTFDDYAGH / GISWNSGSGGYADSVT / VGRGGGYFDY the result was nd (0 of 3 replicates).
With GFTFLDTAMH / GISWNSGSIGYYDSVK / VGRGGGYFDY the result was 2.7 mM (1 of 3 replicates).
With GFTFDDYAMH / GISWNSGSIGYAMSVK / VGRPGGGFDY the result was nd (0 of 3 replicates).

The 5 strongest on average among those seen in every replicate, once more:

| CDR-H1 | CDR-H2 | CDR-H3 | Kd (apparent) | replicates with signal |
|---|---|---|---|---|
| GFTFPAYAMH | GISWNSGSIGYADSVK | VGRGGGYFDF | 1.1 nM | 3 of 3 |
| GFTFDDYAMH | GISWNSGSIGYADSVS | VKRGRGYFDY | 150 nM | 3 of 3 |
| GFNFDDTAMH | GISWMSGSIGYADSVK | VGRGGGYFDY | 13 µM | 3 of 3 |
| GFTFDDYAMG | GISWNSGGIGYADSVK | VGRGGGYFDY | 39 µM | 3 of 3 |
| GSTFDDYAMH | GISWNSGSIMYADSVK | VGLGGGYFDY | 58 µM | 3 of 3 |

From the AlphaSeq antibody data of Engelhart et al. 2022 (doi:10.1038/s41597-022-01779-4), copy in the FLAb collection.